Data on one molecule can be found in article PMC8865417, “Receptor Interaction Profiles of 4-Alkoxy-3,5-Dimethoxy-Phenethylamines (Mescaline Derivatives) and Related Amphetamines” (Frontiers in Pharmacology, 2022).

Protein sequences, listed by entry. Tags and fused reporters are not part of them.
UniProt P28223, whole entry: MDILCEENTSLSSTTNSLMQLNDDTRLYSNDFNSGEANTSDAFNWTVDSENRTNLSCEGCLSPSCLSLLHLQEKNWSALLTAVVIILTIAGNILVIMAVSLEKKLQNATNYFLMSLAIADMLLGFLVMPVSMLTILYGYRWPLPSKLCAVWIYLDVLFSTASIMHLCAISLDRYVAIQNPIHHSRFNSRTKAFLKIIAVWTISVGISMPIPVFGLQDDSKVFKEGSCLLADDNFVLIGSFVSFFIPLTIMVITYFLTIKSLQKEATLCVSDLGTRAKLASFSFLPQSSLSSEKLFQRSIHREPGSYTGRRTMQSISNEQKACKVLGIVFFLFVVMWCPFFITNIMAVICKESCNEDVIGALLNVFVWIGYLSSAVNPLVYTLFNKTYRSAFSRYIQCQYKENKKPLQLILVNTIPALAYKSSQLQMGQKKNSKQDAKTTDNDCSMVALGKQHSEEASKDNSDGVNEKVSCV

This test concerns the target T1, h5-HT2A receptor (Homo sapiens, UniProt P28223).
T1 construct: expressed in transfected cells; host or cells: HEK 293 cells (membrane preparations)
The test is described as follows: Radioligand binding at h5-HT2A receptor ([3H]ketanserin). As to conditions: binding ratio.

In the case of `COc1cc(CCN)cc(OC)c1OC` [compound 5, 3,4,5-trimethoxyphenethylamine], the “Selectivity 5-HT2A vs. 5-HT1A” value is listed as 0.7 and the “Selectivity 5-HT2A vs. 5-HT2C” value is 1.1.
